AlphaSeq binding of Ab-14 heavy chain variants to a spike HR2 peptide

The target is the same throughout: PDVDLGDISGINAS, from the HR2 region of SARS-CoV-2 spike.

The variants keep the light chain, the linker and the frameworks of Ab-14 (scFv order VH, a (GGGGS)3 linker, VL).
VH: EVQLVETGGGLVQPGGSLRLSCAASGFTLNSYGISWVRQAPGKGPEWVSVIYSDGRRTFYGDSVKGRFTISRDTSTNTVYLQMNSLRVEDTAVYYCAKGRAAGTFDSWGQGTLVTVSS
VL: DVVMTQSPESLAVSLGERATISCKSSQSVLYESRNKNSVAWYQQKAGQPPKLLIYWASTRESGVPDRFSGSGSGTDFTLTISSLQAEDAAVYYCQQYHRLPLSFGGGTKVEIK

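The starting antibody came from a phage panning campaign against this peptide. Designed CDR sequences, proposed from the first random library and measured here. Their group label is 14H_GPLM_Gen (GPLM: also part of the Gaussian process libraries; Gen: genetic algorithm; a sequence that several methods proposed may carry one label only). The assay is AlphaSeq: two haploid yeast populations carry antibody and antigen on their surface. The frequency of each diploid, read from paired DNA barcodes, reflects how well the two displayed proteins bind. Each replicate has its own calibration line, from reference interactions of the BCL2 family. Each pool was mated in six replicate cultures.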

The parent's heavy chain CDRs are GFTLNSYGIS, VIYSDGRRTFYGDSVK, GRAAGTFDS; each variant's own CDRs replace them letter for letter.
Values are log10 of the apparent Kd in nM; lower means stronger binding.
A pair that was not seen in that replicate is written "n.d."; this usually means weak binding, but a binder can also be missed.
The authors' rule: three or more of the six replicates give a measured affinity, fewer mean a poor binder.

CDR-H1,CDR-H2,CDR-H3,"replicates, log10 nM",empty controls
GFWLNSYGIS,VIYSDGRRTFYADSVK,GQTAGTFDS,1.60 n.d. 1.22 1.02 0.67 1.24,0 of 18
GFNLNSYGIS,VIYSDGRRTFYADSVK,GQAAGTFDL,-0.08 0.24 -0.18 0.14 0.06 0.15,0 of 18
GFDLNSYGIS,VIYSDGRRTFYSDSVK,GKAAGTFDS,1.02 1.14 0.31 1.12 0.30 0.87,0 of 18
GFWLNDYGIS,VIYSDGRRTFYIDSVK,GRAAGTFDS,1.51 1.51 1.33 2.75 1.43 n.d.,0 of 18
GFTLNSYGIS,VIYSDGRRTFYKDSVK,GQAAGTFDS,1.35 1.85 0.94 1.58 3.39 0.65,0 of 18
GFELNSYGIS,VIYADGRRTFYGDSVK,GRAAGTFDT,-0.81 0.15 -0.27 -0.76 0.44 0.41,0 of 18
GFTLNSYGIS,VIYSDGRRTFYSDSVK,GMTAGTFDS,0.07 -0.29 -0.37 0.09 -0.46 0.25,0 of 18
GFTLNSYGIS,VIYSDGRRTFYSDSVK,GQIAGTFDS,0.77 0.24 0.82 -0.09 0.75 0.24,0 of 18
GFSLNSYGIS,VIYSDGRRTFYDDSVK,GQEAGTFDS,0.12 -0.07 -0.10 0.05 -0.14 -0.05,0 of 18
GFELNTYGIS,VIYSDGRRTFYGDSVK,GKAAGTFDS,1.74 2.87 1.52 0.53 0.41 0.84,0 of 18
GFSLNMYGIS,VIYSDGRRTFYSDSVK,GQAAGTFDS,0.39 0.75 0.16 0.51 0.34 0.27,0 of 18
GFYLNEYGIS,VIYSDGRRTFYGDSVK,GKAAGTFDS,1.20 0.89 0.69 1.01 1.26 1.14,0 of 18
GFTLNSYGIS,VIYSDGRRTFYADSVK,GWTAGTFDS,n.d. n.d. -0.24 -0.41 n.d. 0.92,0 of 18
GFSLNRYGIS,VIYSDGRRTFYGDSVK,GRTAGTFDS,1.09 1.41 2.10 1.08 1.40 2.71,0 of 18
GFVLNSYGIS,VIYSDGRRTFYSDSVK,GEAAGTFDS,n.d. n.d. n.d. n.d. n.d. n.d.,0 of 18
GFSLNEYGIS,VIYSDGRRTFYGDSVK,GRVAGTFDS,0.21 -0.13 -0.15 -0.56 -0.58 -0.42,0 of 18
GFSLNSYGIS,VIYSDGRRTFYSDDVK,GQAAGTFDS,0.61 0.01 0.00 0.06 -0.19 0.25,1 of 18 (1.59)
GFVLNSYGIS,VIYSDGRRTFYKDSVK,GEAAGTFDS,n.d. n.d. 3.14 1.92 3.48 n.d.,0 of 18
GFQLNSYGIS,VIYSDGRRTFYADSVK,GRAAGTFDS,0.07 0.20 0.10 -0.22 0.14 0.44,1 of 18 (2.21)
GFTLWSYGIS,VIYADGRRTFYGDSVK,GRAAGTFDS,n.d. 1.74 1.80 0.12 0.84 0.85,0 of 18
GFTLNSYGIS,VIYADGRRTFYGDSVK,GEAAGTFDG,1.11 0.69 1.39 1.17 1.00 0.94,0 of 18
GFTLNSYGIS,VIYSDGRRTFYSDSVK,GNAAGTFDT,0.41 0.76 0.03 0.11 0.33 0.93,0 of 18
GFQLNEYGIS,VIYSDGRRTFYGDSVK,GRQAGTFDS,0.49 0.03 0.37 0.05 1.22 0.66,0 of 18
GFTLNSYGIS,VIYSDGRRTFYGDSVK,GKTAGTFDT,0.43 0.87 1.12 0.76 0.36 0.93,1 of 18 (2.84)
GFSLNEYGIS,VIYSDGRRTFYGDSVK,GKIAGTFDS,-0.07 0.33 0.18 0.12 -0.38 0.33,0 of 18
GFDLNSYGIS,VIYSDGRRTFYGDSVK,GQVAGTFDS,0.71 -0.12 -0.09 0.06 0.01 0.29,0 of 18
GFSLNNYGIS,VIYSDGRRTFYGDSVK,GRTAGTFDS,0.38 0.24 0.44 0.19 0.24 0.60,0 of 18
GFSLNNYGIS,VIYSDGRRTFYGDSVK,GQAAGTFDK,0.66 0.60 0.51 0.34 1.03 0.63,0 of 18
GFHLNSYGIS,VIYSDGRRSFYADSVK,GRTAGTFDS,1.83 2.03 1.47 1.11 2.33 2.05,0 of 18
GFTLNSYGIS,VIYSDGRRTFYSDSVK,GEAAGTFDV,0.58 1.30 0.44 0.46 0.61 0.87,0 of 18
GFSLNSYGIS,VIYSDGRRTFYIDSVK,GKQAGTFDS,1.04 n.d. 0.63 1.30 1.51 2.06,0 of 18
GFVLNSYGIS,VIYSDGRRTFYADSVK,GQAAGTFDT,1.57 2.00 1.21 1.43 2.66 1.84,0 of 18
GFTLNSYGIS,VIYSDGRRTFYADSVK,GRNAGTFDT,0.28 0.17 0.13 0.18 0.34 0.62,1 of 18 (2.49)

Excerpt, the final 3 entries:

CDR-H1,CDR-H2,CDR-H3,"replicates, log10 nM",empty controls
GFSLNSYGIS,VIYSDGRRTFYIDSVK,GKQAGTFDS,1.04 n.d. 0.63 1.30 1.51 2.06,0 of 18
GFVLNSYGIS,VIYSDGRRTFYADSVK,GQAAGTFDT,1.57 2.00 1.21 1.43 2.66 1.84,0 of 18
GFTLNSYGIS,VIYSDGRRTFYADSVK,GRNAGTFDT,0.28 0.17 0.13 0.18 0.34 0.62,1 of 18 (2.49)

The parent sequence was in this pool as ten entries: three were never detected, three once, and four in most replicates, with averages from 0.34 to 2.37.
As a blank, each scFv also met three strains without target: over all heavy chain designs, 1% of these pairings were detected, typically at 2.08 and seldom below 0.84. For each scFv, signals with the empty controls are counted beside the result, with their mean in brackets.
The range of this assay differs from that of the first round, and the authors advise against merging the two.

Values reported by Li et al. 2023, doi:10.1038/s41467-023-39022-2 (FLAb copy).